Laboratory results reported in PubChem BioAssay (NCI).
This is a selection; strong and weak results do not stand in their true shares.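 48-hour exposure, single concentration, 96-well plates; percent growth endpoint where 0 means no net growth. Active: below 10.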 Activity calls are given as the source filed them.

Assays:
Assay in all cases: NCI-60 one-dose screen, 48 h (100 = growth as untreated, 0 = no growth, -100 = all killed)
Conditions in all cases: 10 µM unless noted
[1] = system: NCI-H23 lung
[2] = system: NCI-H226 lung
[3] = system: NCI-H322M lung
[4] = system: HOP-62 NSCLC
[5] = system: NCI-H460 lung
[6] = system: NCI-H522 lung
[7] = system: A549/ATCC NSCLC
[8] = system: 786-0 renal
[9] = system: COLO 205 colon
[10] = system: DU-145 prostate
[11] = system: K-562 leukemia
[12] = system: MALME-3M melanoma
[13] = system: MDA-MB-231 breast
[14] = system: RXF 393 renal
[15] = system: SF-268 CNS
[16] = system: SF-295 CNS
[17] = system: SF-539 CNS
[18] = system: UACC-257 melanoma
[19] = system: M14 melanoma

Measured: growth

Cc1cc(C)cc(OP(=O)(Cl)Oc2cc(C)cc(C)c2)c1
inactive: [1] 96.2% | [2] 101% | [3] 96.8% | [4] 99.9% | [5] 107% | [6] 105% | [7] 118% | [8] 109% | [9] 118% | [10] 119% | [11] 99.1% | [12] 105% | [13] 104% | [14] 118% | [15] 113% | [16] 101% | [17] 110% | [18] 83.5%

ClCCN1c2ccccc2Sc2ccccc21
inactive: [1] 94.2% | [2] 104% | [3] 105% | [4] 105% | [5] 104% | [6] 98.6% | [7] 99.8% | [8] 105% | [9] 116% | [10] 103% | [11] 101% | [12] 100% | [13] 115% | [14] 106% | [15] 97.6% | [16] 93.8% | [17] 98.1% | [18] 103% | [19] 101%

COP(=O)(CCCBr)OC
inactive: [1] 107% | [2] 95.5% | [3] 106% | [4] 104% | [5] 109% | [6] 99.5% | [7] 101% | [8] 102% | [9] 115% | [10] 106% | [11] 101% | [12] 113% | [13] 109% | [14] 96% | [15] 108% | [16] 94.8% | [17] 101% | [18] 95.9% | [19] 112%

NC(=S)N/N=C/c1ccc(N(CCF)CCCl)cc1
inactive: [1] 103% | [2] 89.6% | [3] 106% | [4] 83.6% | [5] 97.1% | [6] 90.6% | [7] 86.2% | [8] 114% | [9] 105% | [10] 113% | [11] 87.6% | [12] 99.8% | [13] 93.4% | [14] 101% | [15] 118% | [16] 95.8% | [17] 102% | [18] 82% | [19] 103%

Nc1ccc(N=Nc2ccc([As](=O)(O)O)cc2)cc1
inactive: [1] 104% | [2] 93.8% | [3] 92.1% | [4] 102% | [5] 109% | [6] 92.4% | [7] 101% | [8] 101% | [9] 106% | [10] 126% | [12] 97.3% | [13] 99.2% | [15] 102% | [16] 109% | [17] 95.7% | [18] 109% | [19] 107%

COc1cc(I)ccc1[As](=O)(O)O
inactive: [1] 135% | [2] 111% | [3] 115% | [4] 111% | [5] 105% | [6] 114% | [7] 102% | [8] 104% | [9] 144% | [10] 111% | [11] 98.3% | [12] 137% | [13] 111% | [15] 105% | [16] 103% | [17] 99.2% | [18] 91.2% | [19] 106%

O=P1(N(CCCl)CCCl)OCCCN1CCCl (stereo not drawn)
inactive: [1] 116% | [2] 89.2% | [3] 123% | [4] 104% | [5] 101% | [6] 114% | [7] 101% | [8] 91.1% | [9] 110% | [10] 102% | [11] 106% | [13] 107% | [14] 104% | [15] 106% | [16] 102% | [17] 100% | [18] 104% | [19] 104%

O=[As](O)(c1ccc(O)cc1)c1ccccc1O
inactive: [1] 95.8% | [2] 99.6% | [3] 92.1% | [4] 96.6% | [5] 106% | [6] 97% | [7] 103% | [8] 94.9% | [9] 140% | [10] 106% | [11] 62.4% | [12] 93.2% | [13] 93.8% | [14] 92.9% | [15] 99.4% | [16] 101% | [17] 93% | [18] 103% | [19] 94.8%

O=P(Nc1ncccn1)(N1CC1)N1CC1
inactive: [1] 97.5% | [2] 94.5% | [3] 108% | [4] 114% | [5] 104% | [6] 115% | [7] 87.7% | [8] 108% | [9] 108% | [10] 118% | [11] 111% | [12] 104% | [13] 92.1% | [14] 101% | [15] 110% | [16] 95.4% | [17] 102% | [18] 97.8% | [19] 102%

Cc1ccccc1CN(CCCl)Cc1ccccc1C
inactive: [1] 95.8% | [2] 96.8% | [3] 100% | [4] 109% | [5] 99.2% | [6] 104% | [7] 97% | [9] 108% | [10] 103% | [11] 95.4% | [12] 99.2% | [13] 107% | [14] 107% | [15] 98.2% | [16] 110% | [17] 95% | [18] 103% | [19] 97.3%

ClC1(Cl)SC(Cl)(Cl)C(Cl)(Cl)C1(Cl)Cl
inactive: [1] 93.8% | [2] 105% | [3] 91.9% | [4] 100% | [5] 108% | [6] 81.8% | [7] 108% | [8] 103% | [9] 113% | [10] 102% | [11] 99% | [12] 92.6% | [13] 130% | [14] 105% | [15] 99.6% | [16] 77.9% | [17] 105% | [18] 118% | [19] 102%

O=P1(N(CCCl)CCCl)Nc2ccccc2N1
inactive: [1] 99% | [2] 99.6% | [3] 109% | [4] 113% | [5] 115% | [6] 117% | [7] 112% | [8] 111% | [9] 123% | [10] 112% | [11] 107% | [12] 109% | [13] 107% | [14] 111% | [15] 108% | [16] 124% | [18] 112% | [19] 119%

O=P1(N(CCCl)CCCl)OCCCS1 (stereo not drawn)
inactive: [1] 91.2% | [2] 115% | [3] 124% | [4] 113% | [5] 110% | [6] 98.5% | [7] 106% | [8] 105% | [9] 126% | [10] 111% | [11] 107% | [12] 115% | [13] 110% | [14] 125% | [15] 102% | [16] 103% | [17] 90.6% | [18] 97.8% | [19] 106%

O=C(O)CNc1ccc([As](=O)(O)O)cc1
inactive: [1] 118% | [2] 92% | [3] 96.3% | [4] 99.8% | [5] 105% | [6] 93.1% | [7] 106% | [8] 101% | [9] 121% | [10] 106% | [11] 92.4% | [12] 86.9% | [13] 102% | [15] 101% | [16] 103% | [17] 92.8% | [18] 109% | [19] 104%

O=Cc1sc(N(CCCl)CCCl)nc1Cl
inactive: [1] 109% | [2] 101% | [3] 111% | [4] 102% | [5] 104% | [6] 85.6% | [7] 96.5% | [8] 106% | [9] 104% | [10] 112% | [11] 100% | [12] 107% | [13] 113% | [14] 105% | [15] 93.9% | [16] 110% | [17] 104% | [18] 98.2% | [19] 92.2%

CCOC(=O)Nc1cccc([As](=O)(O)O)c1
inactive: [1] 107% | [2] 78.7% | [3] 93.7% | [4] 86.3% | [5] 101% | [6] 87.3% | [7] 117% | [8] 101% | [9] 108% | [10] 101% | [11] 96.5% | [12] 90% | [13] 112% | [15] 96.3% | [16] 110% | [17] 90% | [18] 105% | [19] 99.4%

CN(C)P(=O)(Nc1ccccn1)N(C)C
inactive: [1] 105% | [2] 95.4% | [3] 106% | [4] 113% | [5] 109% | [6] 99.5% | [7] 91.1% | [8] 101% | [9] 123% | [10] 110% | [11] 112% | [12] 104% | [13] 111% | [14] 106% | [15] 112% | [17] 104% | [18] 86% | [19] 115%
